By UniProt entry, the sequences of proteins in these tests, tags left out.
UniProt P18825, whole entry: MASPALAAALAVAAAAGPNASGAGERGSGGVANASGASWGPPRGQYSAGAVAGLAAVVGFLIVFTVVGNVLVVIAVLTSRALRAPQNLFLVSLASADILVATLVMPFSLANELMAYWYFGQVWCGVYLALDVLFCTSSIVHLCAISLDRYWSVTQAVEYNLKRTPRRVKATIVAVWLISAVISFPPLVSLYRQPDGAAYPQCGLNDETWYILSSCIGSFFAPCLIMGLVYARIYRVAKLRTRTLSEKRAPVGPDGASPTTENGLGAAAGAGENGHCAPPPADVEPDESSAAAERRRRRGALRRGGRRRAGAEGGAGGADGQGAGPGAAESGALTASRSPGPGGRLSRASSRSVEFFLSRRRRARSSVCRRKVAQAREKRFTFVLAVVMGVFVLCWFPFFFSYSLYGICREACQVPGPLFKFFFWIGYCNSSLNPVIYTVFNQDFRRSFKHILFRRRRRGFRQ

In patent US20160318866A1, “SUBSTITUTED BIPIPERIDINYL DERIVATIVES” (Bayer Pharma Aktiengesellschaft, priority 2013, published 2016):

Target: human α2C receptor (Homo sapiens, UniProt P18825)
Assay: Antagonism against the adrenoreceptor α2C (luminescence, recombinant CHO cell line)
Conditions: noradrenaline 20 nM, tested up to 10 μM

Question: With O=C(c1ccc(C2(O)COC2)cc1)N1CCC(N2CCCC(COC3CCC3)C2)CC1 (stereo not shown) as the compound, how does the IC50 read?
Answer: 3 nM
